Structures can show the parent of a compound that is named as a salt.
Experiments:
[1] = target: T1, MOR (Homo sapiens, UniProt P35372); test: competition radioligand binding, CHO cell membranes expressing human MOR, [3H]DAMGO
T1 construct: host or cells: CHO (CHO-hMOR)

Protein sequences, listed by entry. Tags and fused reporters are not part of them. Lines headed by an entry give the natural chain unless they say otherwise; changes in a name come on top.
UniProt P35372, whole entry: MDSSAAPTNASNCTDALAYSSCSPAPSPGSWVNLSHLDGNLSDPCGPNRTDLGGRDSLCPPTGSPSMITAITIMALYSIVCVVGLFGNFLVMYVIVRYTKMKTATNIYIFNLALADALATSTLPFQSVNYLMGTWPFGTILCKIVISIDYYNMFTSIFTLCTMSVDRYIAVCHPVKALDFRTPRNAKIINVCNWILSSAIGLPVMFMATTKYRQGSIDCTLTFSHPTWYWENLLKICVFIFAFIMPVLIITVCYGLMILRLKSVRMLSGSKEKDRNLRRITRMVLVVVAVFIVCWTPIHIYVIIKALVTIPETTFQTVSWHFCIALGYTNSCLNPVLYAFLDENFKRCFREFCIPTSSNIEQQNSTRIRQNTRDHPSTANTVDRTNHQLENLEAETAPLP
UniProt P33535, whole entry: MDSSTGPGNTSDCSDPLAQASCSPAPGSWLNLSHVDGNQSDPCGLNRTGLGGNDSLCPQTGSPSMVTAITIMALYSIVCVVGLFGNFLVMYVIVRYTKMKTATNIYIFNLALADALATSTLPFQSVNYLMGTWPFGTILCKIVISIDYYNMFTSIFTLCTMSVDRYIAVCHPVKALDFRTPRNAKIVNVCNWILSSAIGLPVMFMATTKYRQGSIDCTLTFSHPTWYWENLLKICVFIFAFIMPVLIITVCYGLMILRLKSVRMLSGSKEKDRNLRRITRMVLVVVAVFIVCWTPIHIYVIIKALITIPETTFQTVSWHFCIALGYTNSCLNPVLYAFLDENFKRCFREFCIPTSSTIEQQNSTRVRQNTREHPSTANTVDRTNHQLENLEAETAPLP
UniProt P41144: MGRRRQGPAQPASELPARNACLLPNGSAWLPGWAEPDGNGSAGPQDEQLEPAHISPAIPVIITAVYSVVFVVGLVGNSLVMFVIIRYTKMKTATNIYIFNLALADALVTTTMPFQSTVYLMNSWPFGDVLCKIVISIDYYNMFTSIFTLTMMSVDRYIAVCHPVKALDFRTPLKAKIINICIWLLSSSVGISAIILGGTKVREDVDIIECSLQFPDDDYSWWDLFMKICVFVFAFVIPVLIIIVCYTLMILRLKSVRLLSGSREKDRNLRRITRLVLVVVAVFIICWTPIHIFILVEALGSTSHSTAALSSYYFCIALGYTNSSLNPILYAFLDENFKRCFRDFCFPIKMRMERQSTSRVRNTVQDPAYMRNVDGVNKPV

[2] = target: T1, MOR; test: [35S]GTPγS binding assay, CHO-hMOR membranes; type: biochemical
Procedure: Efficacies are presented as percentage stimulation relative to the standard full agonists, [D-Ala^2,N-Me-Phe4,Gly-ol^5]enkephalin (DAMGO for MOR),[53] [D-Pen^2,D-Pen^5]enkephalin (DPDPE for DOR)[54] and N-methyl-2-phenyl-N-[(5R,7S,8S)-7-(pyrrolidin-1-yl)-1-oxaspiro[4.5]dec-8-yl]acetamide (U69,593 for KOR).[55]
Membranes from CHO cells expressing human opioid receptors were prepared in 50 mM Tris-HCl buffer (pH 7.7) according to a previously described procedure.[64] Cells expressing human opioid receptors grown at confluence were removed from the culture plates by scraping, homogenized in 50 mM Tris buffer (pH 7.7), using a Polytron homogenizer, then centrifuged once and washed by an additional centrifugation at 27 000g for 15 min, at 4 °C. The final pellet was resuspended in Tris buffer and stored at −80 °C until use. Protein content of brain and cell membrane preparation homogenates was determined by the method of Bradford using bovine serum albumin as the standard.[65]
Binding of [^35S]GTPγS to membranes from CHO cells stably expressing the human opioid receptors was conducted according to the published procedures.[49],[64] Cell membranes (5–10 μg) in 20 mM HEPES, 10 mM MgCl2, and 100 mM NaCl (pH 7.4) were incubated with 0.05 nM [^35S]GTPγS, 10 μM GDP, and various concentrations of test compound in a final volume of 1 mL, for 60 min at 25 °C. Nonspecific binding was determined using 10 μM GTPγS, and the basal binding was determined in the absence of test ligand. Samples are filtered over glass Whatman glass GF/B fiber filters and counted as described for binding assays. All experiments were performed in duplicate and repeated at least three times.
Data were analyzed and graphically processed using the GraphPad Prism 5.0 Software (GraphPad Prism Software Inc., San Diego, CA). For in vitro assays, inhibition constant (Ki in nM), potency (EC50 in nM), and efficacy (% stimulation) values were determined from concentration–response curves by nonlinear regression analysis. The Ki values were determined by the method of Cheng and Prusoff.[66] In the [^35S]GTPγS binding assays, efficacy was determined relative to the reference full opioid agonists, DAMGO (MOR), DPDPE (DOR), and U69,593 (KOR). In vitro data are presented as mean ± SEM of three to four independent experiments each performed in duplicate. […] Each experimental group included six to seven mice. Data were statistically evaluated using one-way ANOVA with Tukey’s post hoc test for multiple comparisons with significance set at P < 0.05.

[3] = target: T2, MOR (Rattus norvegicus, UniProt P33535); test: competition radioligand binding, rat brain membranes, [3H]DAMGO; conditions: for Ki: rat brain membranes, read-out: opioid receptor binding Ki MOR
T2 construct: Membranes were prepared from Sprague-Dawley rat brains or guinea-pig brains according to the described procedures; tissue Labortierkunde und Laborgenetik, Medizinische Universität Wien; host or cells: Sprague-Dawley rat brain without cerebella

[4] = target: T3, KOR (Cavia porcellus, UniProt P41144); conditions: guinea-pig brain membranes; read-out: opioid receptor binding Ki KOR; cited from earlier work
T3 construct: Membranes were prepared from Sprague-Dawley rat brains or guinea-pig brains according to the described procedures; tissue Labortierkunde und Laborgenetik, Medizinische Universität Wien; host or cells: guinea-pig brain without cerebella

## CO[C@@]12CC[C@H](NC(C)C(=O)O)[C@@H]3Oc4c(O)ccc5c4[C@@]31CCN(C)[C@@H]2C5 (stereo in doubt) [Compound 15a, (2S)-2-[(4,5α-Epoxy-3-hydroxy-14β-methoxy-17-methylmorphinan-6α-yl)amino]propanoic Acid Dihydrochloride]
[1]
  Ki: 0.68 ± 0.08 nM
[2]
  EC50: 1.44 ± 0.49 nM
[3]; from Ki in rat (MOR, DOR) and guinea-pig (KOR) brain membranes
  Ki ratio MOR/DOR/KOR: 1/15/104
[3]
  Ki: 0.69 ± 0.11 nM

## CO[C@@]12CC[C@@H](NC(C)C(=O)O)[C@@H]3Oc4c(O)ccc5c4[C@@]31CCN(C)[C@@H]2C5 (stereo in doubt) [Compound 15b, (2S)-2-[(4,5α-Epoxy-3-hydroxy-14β-methoxy-17-methylmorphinan-6β-yl)amino]propanoic Acid Dihydrochloride]
[1]
  Ki: 1.61 ± 0.04 nM
[2]
  EC50: 15.4 ± 8.4 nM
[3]
  Ki: 1.48 ± 0.08 nM

## CO[C@@]12CC[C@H](NCC(=O)O)[C@@H]3Oc4c(O)ccc5c4[C@@]31CCN(C)[C@@H]2C5 [Compound 2a]
[4]
  Ki: 43.2 ± 7 nM

## CO[C@@]12CC[C@@H](NCC(=O)O)[C@@H]3Oc4c(O)ccc5c4[C@@]31CCN(C)[C@@H]2C5 [Compound 2b, 2-[(4,5α-Epoxy-3-Hydroxy-14β-Methoxy-17-Methylmorphinan-6β-yl)Amino]Acetic Acid]
[4]
  Ki: 44.8 ± 0.1 nM

## CO[C@@]12CC[C@H](N[C@@H](C)C(=O)O)[C@@H]3Oc4c(O)ccc5c4[C@@]31CCN(C)[C@@H]2C5 [Compound 3a]
[1]
  Ki: 0.85 ± 0.06 nM
[2]
  EC50: 1.34 ± 0.17 nM
[3]; from Ki data of ref 44
  Ki ratio MOR/DOR/KOR: 1/35/184

## CO[C@@]12CC[C@@H](N[C@@H](C)C(=O)O)[C@@H]3Oc4c(O)ccc5c4[C@@]31CCN(C)[C@@H]2C5 [Compound 3b]
[1]
  Ki: 2.01 ± 0.41 nM
[2]
  EC50: 6.24 ± 0.79 nM

Reference: PMC6348443, “Synthesis, Biological, and Structural Explorations of New Zwitterionic Derivatives of 14-O-Methyloxymorphone, as Potent μ/δ Opioid Agonists and Peripherally Selective Antinociceptives” (Journal of Medicinal Chemistry, 2018)
